Results published in patent US4780313A (Takeda Chemical Industries, Ltd., priority 1985, dated 1988).

Columns and labels:
[1] = tested on: Meth-A fibrosarcoma cells (Meth-A tumor cells); assay: Antitumor activity, subcutaneous administration, Meth-A tumor-bearing mice (Examples 1 and 4); assay type: in vivo, female BALB/c mice; details: day 21
Method: Meth-A fibrosarcoma cells (Meth-A tumor cells) (1×10^6 cells) were transplanted into each female BALB/c mice (weighing about 20 g) subcutaneously in the flank using a syringe. Seven days after tumor transplantation, mice in which tumor was larger than a certain defined size were chosen and grouped and administration of the test agent was started. The agent was administered subcutaneously in the opposite flank relative to the tumor transplantation site once daily for 10 consecutive days. Each ingredient of the test agent was dissolved in physiological saline (solvent) supplemented in a form of a single preparation with 5% of normal mouse serum in a concentration such that the dose of the solution amounted to 0.1 ml/20 g of mouse body weight. The antitumor effect was evaluated by measuring the tumor weight in each mouse 21 days after tumor transplantation, determining the average tumor weight for each group and calculating the tumor weight ratio (T/C %) between the dosed group (T; 5 animals per group) and the untreated control group (C; 5 to 10 animals per group). The daily dose of each ingredients was expressed in terms of the ingredient weight (mcg) per mouse.

Meth-A tumor cells = assay: Antitumor activity, intravenous administration, Meth-A tumor-bearing mice (Examples 2 and 3); assay type: in vivo, female BALB/c mice; details: day 21
Method: Meth-A tumor cells (1×10^6 cells) were transplanted into each female BALB/c mice (weighting about 20 g) subcutaneously in the flank with a syringe. Seven days after tumor transplantation, mice in which tumor was larger than a certain defined size were chosen and grouped and administration of the test agent was started. The agent was administered via the caudal vein once daily for 10 consecutive days. Each ingredient of the test agent was dissolved in physiological saline (solvent) in the form of a single preparation supplemental with 5% of normal mouse serum in a concentration such that the dose of the solution amounted to 0.2 ml/20 g of mouse body weight. The antitumor effect was evaluated by measuring the tumor weight in each animal 21 days after tumor transplantation, determining the average tumor weight for each group and calculating the tumor weight ratio (T/C%) between the dosed group (T; 5 animals per group) and the untreated control group (C; 10 animals). […] The daily dose of each ingredient was expressed in terms of the ingredient weight (mcg) per mouse.

[2] = Minimum lethal dose of IL-2 (S.C.) in mouse; assay type: in vivo; details: 1 mg=3.5×10^4 units

For “IL-2: genetically engineered IL-2 species employing Escherichia coli DH1/pTF4, prepared per EPC Publication No. 145390”, the “Tumor weight (mg) Mean ± SD” value ([1]; Experiment I, IL-2 10, TMD-1 0 mcg/mouse/day s.c. x10 days) was 2,359 ± 1,064 mg, the “Tumor weight (mg) Mean ± SD” value ([1]; Experiment II, IL-2 10, TMD-1 0 mcg/mouse/day s.c. x10 days) was 2,605 ± 709 mg and the “Tumor weight (mg) Mean ± SD” value ([1]; Table 4, IL-2 10 mcg/mouse/day alone s.c. x10 days) was 3,072 ± 837 mg. The “Tumor weight (mg) Mean ± SD” value (Meth-A tumor cells; Table 2, IL-2 10, TMD-1 0 mcg/mouse/day i.v. x10 days) was 4,368 ± 959 mg, the “Tumor weight (mg) Mean ± SD” value (Meth-A tumor cells; Table 3, IL-2 10, Quinonyl-MDP-66 0 mcg/mouse/day i.v. x10 days) was 1,999 ± 709 mg and the “minimum lethal doses (MLDs)” value [2] was “not less than 10 mg/mouse”.
